## Antibody variant affinities, Ab-95 light chain, assay 2

Target: peptide PDVDLGDISGINAS, taken from heptad repeat 2 (HR2) of SARS-CoV-2 spike.

Parent scFv Ab-95: VH joined to VL by a (GGGGS)3 linker. Changes lie in the light chain CDRs alone.
VH: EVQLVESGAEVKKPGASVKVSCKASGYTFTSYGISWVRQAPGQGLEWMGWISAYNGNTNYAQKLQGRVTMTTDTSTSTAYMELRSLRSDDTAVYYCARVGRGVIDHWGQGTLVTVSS
VL: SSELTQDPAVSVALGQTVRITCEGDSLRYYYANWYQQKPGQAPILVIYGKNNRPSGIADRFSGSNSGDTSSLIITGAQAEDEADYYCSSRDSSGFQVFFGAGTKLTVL

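Phage display of a naive human antibody library on the peptide gave the parent. Library AAYL52 holds single substitutions and randomly drawn double and triple substitutions in the CDRs. The assay is AlphaSeq: two haploid yeast populations carry antibody and antigen on their surface. The frequency of each diploid, read from paired DNA barcodes, reflects how well the two displayed proteins bind. Read counts were normalised to the haploid input and turned into Kd by a linear fit to BCL2-family pairs of known affinity, for each replicate. Mating was done three times.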

Changes read parent residue, position, new residue, counted from the first residue of the VL shown.
Values are log10 of the apparent Kd in nM; lower means stronger binding.
Replicates are averaged; those with no signal do not enter the mean.
"nd" marks a missing value. The strain was present, yet no cells mated with the target were sequenced in any replicate, which points to weak or no binding.
Background: pairings of library AAYL52 with three empty control strains gave a value in 28% of cases (median 3.91, 5th percentile 2.90). Values in that range, when seen in few replicates, are hard to tell from nonspecific mating.
In this assay the parent's reference entry averaged 2.31; its copy inside this library read 2.25.

"log10 Kd (nM), mean",replicates with signal,changes
nd,0/3,N51L S55A R90Y
4.31,2/3,R28Q N33R R90V
3.99,2/3,E23T K50C R53I
3.60,1/3,G94Q F95S
3.31,3/3,G24Y S89V V97I
3.38,1/3,D25Y R90P S93G
3.43,1/3,Y31E R90T V97M
4.71,2/3,L27R P54G S93W
2.42,3/3,R53Q S55Q S92K
4.32,1/3,L27K A32R S88Q
4.48,1/3,Y29A A32N F98T
1.54,3/3,E23K D25V S88M
nd,0/3,R28Q Y31H R90I
4.24,3/3,Y29V Y31W N52D
3.87,2/3,A32M S55V R90V
3.32,2/3,L27I R28V S88F
3.92,1/3,L27N K50S G94D
3.39,1/3,S93H F95K Q96N
1.51,3/3,E23N N52Q P54M
4.37,3/3,E23S Y29I G49T
3.58,2/3,A32M S89A Q96D
2.84,3/3,E23S K50A P54H
4.33,2/3,G49N N51P F95V
3.69,3/3,G24T S88C S92W
nd,0/3,Y29P A32N R53G
4.27,1/3,A32L N33F F98S
nd,0/3,N33V K50V S93H
3.91,3/3,Y31W P54W F95E
5.36,1/3,G24E N52K Q96E
3.62,1/3,R53F S93N G94W
4.42,2/3,G49V K50T N51L
4.08,3/3,Y31E N51P F95L
5.73,1/3,S55C S88C Q96P
2.36,3/3,F95I Q96G
2.36,3/3,Y30W N52F S88M
2.80,3/3,L27K A32F K50G
1.49,3/3,E23N D25T S55D
nd,0/3,A32C G94Y V97K
2.53,3/3,A32C K50D S92N
2.46,3/3,D25N S26L Y29V
nd,0/3,G24E Y31V N52E
5.28,2/3,R28K N33E R90C
2.36,3/3,K50P N51G V97D
3.87,1/3,L27Y F95K Q96M
3.36,1/3,L27G R53P S89T
nd,0/3,N33E F95W
nd,0/3,E23C D91F
3.42,3/3,L27Y A32Q
2.27,3/3,D25T R28N R90C
3.76,2/3,R53K S88G V97K
3.08,3/3,G24R R28G N33H
2.40,2/3,R53I S55Q
nd,0/3,N33A G94T
2.41,3/3,Y31R P54Q S92K
2.44,3/3,S55D S89E G94R
3.35,3/3,E23P S26F L27W
3.59,2/3,S26G N51T R90D
3.74,3/3,G24S Y30L A32C
4.83,2/3,K50G R53F S93I
4.45,2/3,G24R N52Y V97M
3.67,3/3,Y30H G49Q N51P
3.40,1/3,L27Q A32I G49K
4.72,2/3,Y30S G49I P54L
nd,0/3,Y29T S55L S88I
1.59,3/3,R28I Y29N F95H
2.67,3/3,D25V N52F D91Y
4.47,2/3,G49C R53Y S93F
nd,0/3,L27K R28T F95G
4.17,2/3,R53Y R90M G94F
2.97,3/3,L27V S93K Q96C
nd,0/3,S55P S89H V97K
3.12,3/3,E23T K50V N52W
3.41,3/3,G49Q S55W G94T
nd,0/3,D25K S26E R90T

Picked from the list: the 4 lowest averages where every replicate gave a value.

changes	log10 Kd (nM), mean	replicates with signal
E23N D25T S55D	1.49	3/3
E23N N52Q P54M	1.51	3/3
E23K D25V S88M	1.54	3/3
R28I Y29N F95H	1.59	3/3

Source: Engelhart et al. 2022 (doi:10.1038/s41597-022-01779-4), MIT Lincoln Laboratory and A-Alpha Bio; data file from the FLAb repository.